Results reported in article PMC9630929 (Journal of medicinal chemistry, 2022).

Amino acid sequences for entries named in this document (tags omitted). Residues count along the entry.
UniProt P51532, 1453-1564 limits assumed: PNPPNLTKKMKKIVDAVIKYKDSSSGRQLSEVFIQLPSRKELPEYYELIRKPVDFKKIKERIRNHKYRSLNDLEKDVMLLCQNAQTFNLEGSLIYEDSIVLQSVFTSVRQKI

How the values were obtained:
SMARCA4 bromodomain [1] = biological target: SMARCA4 bromodomain (Homo sapiens, UniProt P51532); settings: DSF, 100 μM inhibitor, 10 μM bromodomain
RWPE-1 cells = settings: 0.1, 1, 10 μM
SMARCA4 bromodomain [2] = settings: cited from earlier work

With `Cc1cccc(C2NC(=O)c3c(Cl)cccc3N2)c1` (centres unmarked) [Compound 16, 5-Chloro-2-(3-methylphenyl)-2,3-dihydroquinazolin-4(1H)-one] the “SMARCA4 ΔTm” value (SMARCA4 bromodomain [1]) was “did not exhibit detectable thermal stabilization” and the “growth inhibition of RWPE-1 cells” value (RWPE-1 cells) was “do not inhibit the growth”.
In the case of `CN(C)/C=C1\CCn2c1nc(=O)c1c(Cl)cccc12` [Compound 2, (E)-6-Chloro-3-((dimethylamino)methylene)-2,3-dihydropyrrolo[1,2-a]quinazolin-5(1H)-one], the “binding toward SMARCA4 bromodomain” value (SMARCA4 bromodomain [2]) is listed as “nanomolar binding”.
With `Cc1cccc(C2NC(=O)c3c(Br)cccc3N2)c1` (centres unmarked) [Compound 34, 5-Bromo-2-(3-methylphenyl)-2,3-dihydroquinazolin-4(1H)-one] the “growth inhibition of RWPE-1 cells” value (RWPE-1 cells) was “do not inhibit the growth”.
For `Cc1ccccc1C1NC(=O)c2c(Cl)cccc2N1` (centres unmarked) [Compound 15, 5-Chloro-2-(2-methylphenyl)-2,3-dihydroquinazolin-4(1H)-one], the “SMARCA4 ΔTm” value (SMARCA4 bromodomain [1]) was “did not exhibit detectable thermal stabilization”.
